Reference: ChEMBL document CHEMBL1139550, “1-Acyl-1H-[1,2,4]triazole-3,5-diamine analogues as novel and potent anticancer cyclin-dependent kinase inhibitors: synthesis and evaluation of biological activities” (J Med Chem, 2005)

By UniProt entry, the sequences of proteins in these tests, tags left out.
UniProt P35968, whole entry: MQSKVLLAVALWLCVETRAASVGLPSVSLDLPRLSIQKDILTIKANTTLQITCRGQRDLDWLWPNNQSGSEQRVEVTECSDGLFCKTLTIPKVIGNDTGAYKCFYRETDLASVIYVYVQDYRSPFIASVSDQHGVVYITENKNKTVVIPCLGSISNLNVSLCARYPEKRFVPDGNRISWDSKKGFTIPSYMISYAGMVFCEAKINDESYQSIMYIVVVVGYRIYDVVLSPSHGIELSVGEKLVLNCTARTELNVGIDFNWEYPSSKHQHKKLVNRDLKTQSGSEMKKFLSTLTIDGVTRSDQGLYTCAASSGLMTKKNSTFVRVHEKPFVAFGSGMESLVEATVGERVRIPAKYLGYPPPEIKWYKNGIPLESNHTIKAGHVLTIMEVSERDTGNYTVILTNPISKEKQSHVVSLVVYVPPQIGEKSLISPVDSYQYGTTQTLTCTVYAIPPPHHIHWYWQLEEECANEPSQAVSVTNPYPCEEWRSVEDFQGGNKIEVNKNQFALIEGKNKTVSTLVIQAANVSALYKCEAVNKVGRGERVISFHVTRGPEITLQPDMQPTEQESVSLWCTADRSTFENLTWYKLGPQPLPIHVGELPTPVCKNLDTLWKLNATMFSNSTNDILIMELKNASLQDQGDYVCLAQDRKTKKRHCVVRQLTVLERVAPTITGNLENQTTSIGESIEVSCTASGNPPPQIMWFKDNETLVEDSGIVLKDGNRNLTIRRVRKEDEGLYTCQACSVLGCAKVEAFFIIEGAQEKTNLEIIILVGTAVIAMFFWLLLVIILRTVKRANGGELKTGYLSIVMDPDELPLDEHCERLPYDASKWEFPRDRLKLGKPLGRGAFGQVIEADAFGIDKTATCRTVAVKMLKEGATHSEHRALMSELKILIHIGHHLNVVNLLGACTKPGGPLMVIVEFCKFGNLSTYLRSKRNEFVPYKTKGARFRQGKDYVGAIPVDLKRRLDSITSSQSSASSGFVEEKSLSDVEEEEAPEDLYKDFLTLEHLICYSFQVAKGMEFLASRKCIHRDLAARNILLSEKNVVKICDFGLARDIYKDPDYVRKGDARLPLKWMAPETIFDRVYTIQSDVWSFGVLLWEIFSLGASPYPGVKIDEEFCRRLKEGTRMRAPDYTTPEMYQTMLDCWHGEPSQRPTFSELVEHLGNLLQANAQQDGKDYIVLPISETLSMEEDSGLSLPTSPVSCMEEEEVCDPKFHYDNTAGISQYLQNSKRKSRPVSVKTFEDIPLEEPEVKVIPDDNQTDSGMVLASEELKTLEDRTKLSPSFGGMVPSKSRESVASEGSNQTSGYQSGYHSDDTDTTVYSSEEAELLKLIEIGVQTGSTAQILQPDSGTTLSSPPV

Molecular target: Vascular endothelial growth factor receptor 2 (Homo sapiens, UniProt P35968)
Assay: Inhibition of Vascular endothelial growth factor receptor 2

| SMILES | IC50 [nM] |
| --- | --- |
| Nc1nc(Nc2ccc(S(N)(=O)=O)cc2)nn1C(=S)Nc1c(F)cccc1F | 32 |
| Cc1ccsc1C(=O)n1nc(Nc2ccc(S(N)(=O)=O)cc2)nc1N | 51 |
